Source: patent US6936585B2, “Corticotropin releasing factor 2 receptor agonists” (priority 2002, dated 2005)

Experiments:
CRF2R = target: T1, CRF2R (Homo sapiens, UniProt Q13324); test: CRF2R agonist activation (EC50 / Emax), called comparative CRF binding; type: cell-based; settings: for Emax: read-out: CRF2R Emax
T1 sequence (Q13324 1-411): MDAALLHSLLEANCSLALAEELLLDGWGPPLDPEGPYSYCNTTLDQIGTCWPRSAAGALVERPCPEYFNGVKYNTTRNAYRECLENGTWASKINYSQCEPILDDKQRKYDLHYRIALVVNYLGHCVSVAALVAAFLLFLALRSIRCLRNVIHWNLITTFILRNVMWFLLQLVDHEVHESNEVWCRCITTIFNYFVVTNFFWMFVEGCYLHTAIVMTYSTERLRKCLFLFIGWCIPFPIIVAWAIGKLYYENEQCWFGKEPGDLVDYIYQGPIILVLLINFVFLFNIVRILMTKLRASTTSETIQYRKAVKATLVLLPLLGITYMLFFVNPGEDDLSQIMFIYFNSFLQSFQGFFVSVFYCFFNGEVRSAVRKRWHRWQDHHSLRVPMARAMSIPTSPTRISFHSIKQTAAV
Outline: (§1)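 CRFR-expressing cells + peptide vs vehicle; read-out cAMP (lysate assay) or CRE-linked reporter expression (luciferase, CAT, fluorescent protein, alkaline phosphatase, etc.). Signal compared against vehicle-treated cells.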

CRF1R = target: T2, CRF1R (Homo sapiens, UniProt P34998); test: CRF1R agonist activation (EC50 / Emax), called comparative CRF binding; type: cell-based; settings: for EC50: CRF1R EC50; for Emax: read-out: CRF1R Emax
T2 sequence (P34998 24-415): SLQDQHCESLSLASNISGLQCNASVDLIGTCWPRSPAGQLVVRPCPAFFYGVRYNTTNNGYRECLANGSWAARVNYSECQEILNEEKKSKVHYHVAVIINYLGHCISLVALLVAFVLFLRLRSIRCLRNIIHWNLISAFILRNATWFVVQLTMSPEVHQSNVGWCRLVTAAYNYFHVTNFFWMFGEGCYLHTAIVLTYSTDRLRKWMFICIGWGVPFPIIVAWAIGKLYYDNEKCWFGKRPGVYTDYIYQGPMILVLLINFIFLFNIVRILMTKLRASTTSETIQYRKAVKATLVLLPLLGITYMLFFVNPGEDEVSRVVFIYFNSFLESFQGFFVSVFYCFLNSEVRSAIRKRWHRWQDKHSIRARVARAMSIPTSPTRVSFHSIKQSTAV
Outline: as §1

CC[C@H](C)[C@H](NC(=O)[C@@H](NC(=O)[C@H](C)NC(=O)[C@H](CC(C)C)NC(=O)[C@H](CC(C)C)NC(=O)[C@H](CC(C)C)NC(=O)[C@H](C)NC(=O)[C@H](CC(N)=O)NC(=O)[C@H](CC(N)=O)NC(=O)[C@H](C)NC(=O)[C@H](C)NC(=O)[C@H](CCC(N)=O)NC(=O)[C@H](CCC(N)=O)NC(=O)[C@H](CCCCN)NC(=O)[C@H](CCC(=O)O)NC(=O)[C@H](CCCCN)NC(=O)[C@H](CCC(=O)O)NC(=O)[C@H](CCC(N)=O)NC(=O)[C@H](CCCCN)NC(=O)[C@H](CCC(=O)O)NC(=O)[C@@H](NC(=O)[C@H](CCC(=O)O)NC(=O)[C@@H](NC(=O)[C@H](CCSC)NC(=O)[C@H](CCCCN)NC(=O)[C@H](CCCNC(=N)N)NC(=O)[C@H](CC(C)C)NC(=O)[C@H](CC(C)C)NC(=O)[C@H](Cc1ccc(O)cc1)NC(=O)[C@H](CCC(N)=O)NC(=O)[C@@H]1CCCN1C(=O)[C@H](CC(C)C)NC(=O)[C@H](CC(=O)O)NC(=O)[C@@H](NC(=O)[C@H](CO)NC(=O)[C@@H](NC(=O)[C@@H]1CCCN1C(=O)[C@@H]1CCCN1C(=O)CNC(=O)[C@@H]1CCC(=O)N1)[C@@H](C)CC)[C@@H](C)CC)[C@@H](C)CC)[C@@H](C)CC)[C@@H](C)O)C(N)=O [compound 227]
EC50 (CRF2R): 33.6 nM | Emax (CRF2R): 95% | EC50 (CRF1R): 918 nM | Emax (CRF1R): 18%

CC[C@H](C)[C@H](NC(=O)[C@@H](NC(=O)[C@H](CC(=O)O)NC(=O)[C@H](CC(C)C)NC(=O)[C@H](CC(C)C)NC(=O)[C@H](CC(C)C)NC(=O)[C@H](C)NC(=O)[C@H](CC(N)=O)NC(=O)[C@H](CC(N)=O)NC(=O)[C@H](C)NC(=O)[C@H](C)NC(=O)[C@H](CCC(N)=O)NC(=O)[C@H](CCC(N)=O)NC(=O)[C@H](CCCCN)NC(=O)[C@H](CCC(=O)O)NC(=O)[C@H](CCCCN)NC(=O)[C@H](CCC(=O)O)NC(=O)[C@H](CCC(N)=O)NC(=O)[C@H](CCCCN)NC(=O)[C@H](CCC(=O)O)NC(=O)[C@@H](NC(=O)[C@H](CCC(=O)O)NC(=O)[C@@H](NC(=O)[C@H](CCSC)NC(=O)[C@H](CCCCN)NC(=O)[C@H](CCCNC(=N)N)NC(=O)[C@H](CC(C)C)NC(=O)[C@H](CC(C)C)NC(=O)[C@H](Cc1c[nH]cn1)NC(=O)[C@H](CC(C)C)NC(=O)[C@@H]1CCCN1C(=O)[C@H](CC(C)C)NC(=O)[C@H](CC(=O)O)NC(=O)[C@@H](NC(=O)[C@H](CO)NC(=O)[C@@H](NC(=O)[C@@H]1CCCN1C(=O)[C@@H]1CCCN1C(=O)CNC(=O)[C@@H]1CCC(=O)N1)[C@@H](C)CC)[C@@H](C)CC)[C@@H](C)CC)[C@@H](C)CC)[C@@H](C)O)C(N)=O [compound 240]
EC50 (CRF2R): 22 nM | Emax (CRF2R): 100% | EC50 (CRF1R): 915 nM | Emax (CRF1R): 80%

CC[C@H](C)[C@H](NC(=O)[C@H](CCCNC(=N)N)NC(=O)[C@H](C)NC(=O)[C@H](CC(C)C)NC(=O)[C@H](CC(C)C)NC(=O)[C@H](CCCNC(=N)N)NC(=O)[C@H](C)NC(=O)[C@H](CC(N)=O)NC(=O)[C@H](CC(N)=O)NC(=O)[C@H](C)NC(=O)[C@H](C)NC(=O)[C@H](CCC(N)=O)NC(=O)[C@H](CCC(N)=O)NC(=O)[C@H](CCCCN)NC(=O)[C@H](CCC(=O)O)NC(=O)[C@H](CCCCN)NC(=O)[C@H](CCC(=O)O)NC(=O)[C@H](CCC(N)=O)NC(=O)[C@H](CCCCN)NC(=O)[C@H](CCC(=O)O)NC(=O)[C@@H](NC(=O)[C@H](CCC(=O)O)NC(=O)[C@@H](NC(=O)[C@@H](NC(=O)[C@H](CCCCN)NC(=O)[C@H](CCCNC(=N)N)NC(=O)[C@H](CC(C)C)NC(=O)[C@H](CC(C)C)NC(=O)[C@H](CCC(N)=O)NC(=O)[C@H](Cc1ccccc1)NC(=O)[C@@H]1CCCN1C(=O)[C@H](CC(C)C)NC(=O)[C@H](CC(=O)O)NC(=O)[C@@H](NC(=O)[C@H](CO)NC(=O)[C@@H](NC(=O)[C@@H]1CCCN1C(=O)[C@@H]1CCCN1C(=O)CNC(=O)[C@@H]1CCC(=O)N1)[C@@H](C)CC)[C@@H](C)CC)C(C)C)[C@@H](C)CC)[C@@H](C)CC)C(N)=O [compound 279]
Emax (CRF2R): 100% | Emax (CRF1R): 93%

CC[C@H](C)[C@H](NC(=O)[C@@H](NC(=O)[C@H](C)NC(=O)[C@H](CC(C)C)NC(=O)[C@H](CC(C)C)NC(=O)[C@H](CC(C)C)NC(=O)[C@H](C)NC(=O)[C@H](CC(N)=O)NC(=O)[C@H](CC(N)=O)NC(=O)[C@H](C)NC(=O)[C@H](C)NC(=O)[C@H](CCC(N)=O)NC(=O)[C@H](CCC(N)=O)NC(=O)[C@H](CCCCN)NC(=O)[C@H](CCC(=O)O)NC(=O)[C@H](CCCCN)NC(=O)[C@H](CCC(=O)O)NC(=O)[C@H](CCC(N)=O)NC(=O)[C@H](CCCCN)NC(=O)[C@H](CCC(=O)O)NC(=O)[C@@H](NC(=O)[C@H](CCC(=O)O)NC(=O)[C@@H](NC(=O)[C@H](CCSC)NC(=O)[C@H](CCCCN)NC(=O)[C@H](CCCNC(=N)N)NC(=O)[C@H](CC(C)C)NC(=O)[C@H](CC(C)C)NC(=O)[C@H](Cc1ccccc1)NC(=O)[C@@H](NC(=O)[C@@H]1CCCN1C(=O)[C@H](CC(C)C)NC(=O)[C@H](CC(=O)O)NC(=O)[C@@H](NC(=O)[C@H](CO)NC(=O)[C@@H](NC(=O)[C@@H]1CCCN1C(=O)[C@@H]1CCCN1C(=O)CNC(=O)[C@@H]1CCC(=O)N1)[C@@H](C)CC)[C@@H](C)CC)[C@@H](C)CC)[C@@H](C)CC)[C@@H](C)CC)[C@@H](C)O)C(N)=O [compound 298]
EC50 (CRF2R): 82 nM | Emax (CRF2R): 98.8% | EC50 (CRF1R): ≥ 1000 nM | Emax (CRF1R): 20.1%

CC[C@H](C)[C@H](NC(=O)[C@H](CCCNC(=N)N)NC(=O)[C@H](C)NC(=O)[C@H](CC(C)C)NC(=O)[C@H](CC(C)C)NC(=O)[C@H](CCCNC(=N)N)NC(=O)[C@H](C)NC(=O)[C@H](CC(N)=O)NC(=O)[C@H](CC(N)=O)NC(=O)[C@H](C)NC(=O)[C@H](C)NC(=O)[C@H](CCC(N)=O)NC(=O)[C@H](CCC(N)=O)NC(=O)[C@H](CCCCN)NC(=O)[C@H](CCC(=O)O)NC(=O)[C@H](CCCCN)NC(=O)[C@H](CCC(=O)O)NC(=O)[C@H](CCC(N)=O)NC(=O)[C@H](CCCCN)NC(=O)[C@H](CCC(=O)O)NC(=O)[C@@H](NC(=O)[C@H](CCC(=O)O)NC(=O)[C@@H](NC(=O)[C@@H](NC(=O)[C@H](CCCCN)NC(=O)[C@H](CCCNC(=N)N)NC(=O)[C@H](CC(C)C)NC(=O)[C@H](CC(C)C)NC(=O)[C@H](Cc1ccc(O)cc1)NC(=O)[C@@H](NC(=O)[C@@H]1CCCN1C(=O)[C@@H](NC(=O)[C@H](CC(=O)O)NC(=O)[C@@H](NC(=O)[C@H](CO)NC(=O)[C@@H](NC(=O)[C@@H]1CCCN1C(=O)[C@@H]1CCCN1C(=O)CNC(=O)[C@@H]1CCC(=O)N1)[C@@H](C)CC)[C@@H](C)CC)C(C)C)[C@@H](C)CC)C(C)C)[C@@H](C)CC)[C@@H](C)CC)C(N)=O [compound 379]
Emax (CRF2R): 94% | Emax (CRF1R): 8%

CC[C@H](C)[C@H](NC(=O)[C@@H](NC(=O)[C@H](CC(=O)O)NC(=O)[C@H](CC(C)C)NC(=O)[C@H](CC(C)C)NC(=O)[C@H](CC(C)C)NC(=O)[C@H](CCCNC(=N)N)NC(=O)[C@H](CC(N)=O)NC(=O)[C@H](CC(N)=O)NC(=O)[C@H](C)NC(=O)[C@H](C)NC(=O)[C@H](CCC(N)=O)NC(=O)[C@H](CCC(N)=O)NC(=O)[C@H](CCCCN)NC(=O)[C@H](CCC(=O)O)NC(=O)[C@H](CCCCN)NC(=O)[C@H](CCC(=O)O)NC(=O)[C@H](CCC(N)=O)NC(=O)[C@H](CCCCN)NC(=O)[C@H](CCC(=O)O)NC(=O)[C@@H](NC(=O)[C@H](CCC(=O)O)NC(=O)[C@@H](NC(=O)[C@H](CCSC)NC(=O)[C@H](CCCCN)NC(=O)[C@H](CCCNC(=N)N)NC(=O)[C@H](CC(C)C)NC(=O)[C@H](CC(C)C)NC(=O)[C@H](Cc1c[nH]cn1)NC(=O)[C@H](Cc1c[nH]c2ccccc12)NC(=O)[C@@H]1CCCN1C(=O)[C@H](CC(C)C)NC(=O)[C@H](CC(=O)O)NC(=O)[C@@H](NC(=O)[C@H](CO)NC(=O)[C@@H](NC(=O)[C@@H]1CCCN1C(=O)[C@@H]1CCCN1C(=O)CNC(=O)[C@@H]1CCC(=O)N1)[C@@H](C)CC)[C@@H](C)CC)[C@@H](C)CC)[C@@H](C)CC)[C@@H](C)O)C(N)=O [compound 209]
EC50 (CRF2R): 7.4 nM | Emax (CRF2R): 93% | EC50 (CRF1R): 26.4 nM | Emax (CRF1R): 80%
